Reference: US20190076431A1, “SRC INHIBITOR TO BLOCK CELL SURFACE GRP78 EXPRESSION” (University of Southern California, priority 2016, published 2019)

Test system: csGRP78
Test: Blocking of csGRP78 expression by SRC inhibitors (summary statement)
Type: cell-based
Conditions: clinically relevant dose

Cc1nc(Nc2ncc(C(=O)Nc3c(C)cccc3Cl)s2)cc(N2CCN(CCO)CC2)n1 [Dasatinib, dasatinib] was tested, and the csGRP78 expression was “can block csGRP78 expression at clinically relevant dose”.
